Only some compounds are listed: those with a hit (about 2.1% of all), similar ones and a draw of the others.
TSG101-PTAP inh = blocks PTAP/TSG101 interaction to inhibit HIV-1 budding. Fluorescence polarization, FITC-PTAP peptide / Tsg101 binding. Potency, µM (titrated, usually from 115 µM), hits mostly inhibitors. 340,000 tested, under 10 active. AID 493005; active means well fitted inhibition curve with a large enough effect in the main read-out, with a control signal flat, not every such curve was filed as active; inconclusive means small, poorly fitted or top-dose-only effect, or effect the other way, or a change in a side signal; inactive means no such curve, though single readings can be large or run the other way
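Tsg101 binding domain (10 uM final) was mixed with compound and a FITC-labeled PTAP peptide (50 nM final) in HEPES pH 7.5 buffer with NaCl, Tween 20, EDTA and TCEP; fluorescence polarization was read after 20 min at r.t.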
Nrf2 block = Nrf2 pathway inhibition; A549 ARE-Fluc reporter, luciferase luminescence, 18-24 h; Potency, µM (top dose mostly 46 µM), actives largely listed as inhibitors; 360,000 compounds, 2.1% hits; AID 504444; further: nearly all actives have a fitted effect of over 60% in size
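Concentration-response testing used A549 ARE_Fluc cells at 5000 cells/well. Following an 18-24 h compound incubation, viability was read by fluorescence (Ex 405/Em 525) and luciferase output by luminescence.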
A549 tox = counter-screen for Nrf2 inhibitors: cytotoxicity in A549 cells; 390,000 compounds, 0.16% hits; Potency, µM (series often up to 46 µM), actives largely listed as inhibitors; A549 ARE-Fluc cells, CellTiter-Fluor viability, 18-24 h
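A549 ARE_Fluc cells in 5% FBS OPTI-MEM were exposed to compounds in concentration-response for 18-24 h at 37 deg C. Viability was read by CellTiter-Fluor fluorescence (Ex 405/Em 525) after 30 min, before the luciferase read.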
Glioma ERSR ind = ER stress response induction in glioma | AID 602332 | Potency, µM, actives largely listed as activators | 420,000 compounds, 0.02% hits | U87-MG GRP78 promoter luciferase reporter, 16 h; further: series mostly up to about 76 µM; nearly all actives have a fitted effect of over 35% in size
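ERSR induction read as luciferase luminescence (Bright-Glo, 10 min at room temperature) in stably transfected human U87-MG glioma cells exposed to compounds for 16 h, using GRP78 as sensor.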
Nrf2 activator = activates Nrf2 signaling; AREc32 ARE-luciferase reporter (MCF7-derived line), luminescence, 24 h; Potency, µM (series often up to 46.1 µM), most hits filed as activators; 410,000 compounds, 0.31% hits; AID 624171; further: nearly all actives have a fitted effect of over 65% in size
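AREc32 cells carrying an ARE-driven firefly luciferase reporter were seeded at 1000 cells/well in OPTI-MEM with 5% FBS, then exposed to compound for 24 hr at 37 deg C. Luminescence was read with Steady-Glo after 30 min at RT.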
miR-21 FLuc = raises the signal of a miR-21 reporter; HeLa miR-21 FLuc reporter, luciferase, 48 h; Potency, µM (highest dose often 38.3 µM); 340,000 tested, under 10 active; active = well fitted rising curve with a large enough effect; inconclusive = small, poorly fitted or top-dose-only effect; inactive = no such curve, though single readings can be large or run the other way;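 also: miR-21 action dims this reporter so a rising signal means less miR-21 action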
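Luminescence from a firefly luciferase reporter carrying a miR-21 binding site downstream, stably expressed under a CMV promoter in HeLa cells that make miR-21 endogenously, reports miRNA modulation after 48 h compound exposure up to approximately 40uM final.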
Hits are given with their value; i = inactive; ? = inconclusive; nt = no result given. Unless noted, the call rests on the fitted dose curve; in most records, active means well fitted curve in the direction sought with a large enough effect; inconclusive means small, poorly fitted or top-dose-only effect, or another doubt; inactive means no such curve, though single readings can be large; an effect the other way counts as inactive or inconclusive.

SMILES	TSG101-PTAP inh	Nrf2 block	A549 tox	Glioma ERSR ind	Nrf2 activator	miR-21 FLuc
Cc1nc2cc(NC(=O)[C@@H]3C[C@@H](Sc4ccccn4)CN3Cc3cccc(F)c3)ccc2s1	nt	nt	nt	i	nt	nt
O=c1[nH]c2cc([N+](=O)[O-])ccc2c2ccccc12	i	?	i	i	i	nt
O=c1[nH]c2cc([N+](=O)[O-])ccc2c2cc(Br)ccc12	nt	nt	nt	i	3.2µM	nt
CN(C)c1ccc(/C=C2\C(=O)/C(=C\c3ccc(N(C)C)cc3)c3ccccc32)cc1	nt	nt	nt	i	nt	nt
Clc1nc2sccn2c1/C=N/n1cnc2ccccc21	i	?	i	i	3.2µM	i
C(=N\n1cnc2ccccc21)/c1cccnc1	i	i	i	i	i	i
Nc1cc([N+](=O)[O-])cc(N)c1N	nt	nt	nt	i	nt	nt
Cc1ccccc1C(=O)NNC(=S)NC(=O)c1cccs1	i	15µM	?	i	i	i
CC(C)(C)c1ccc(C(=O)NC(=S)NNC(=O)c2cccs2)cc1	i	?	i	14µM	i	i
CCCOc1ccc(C(=O)NNC(=S)NC(=O)c2cccs2)cc1	i	7.3µM	i	?	i	i
O=C(NC(=S)Nc1ccc(Cl)cn1)c1cccs1	i	?	i	i	6.3µM	i
CN(C)CC(C(=O)c1ccccc1)c1ccccc1 (configuration not stated)	i	i	i	i	?	?
CN(Cc1cc(Cl)cc(Cl)c1)CC(C(=O)c1ccccc1)c1ccccc1 (configuration not stated)	i	i	i	i	11µM	nt
Cn1nnnc1Sc1ncnc2scc(-c3ccc(N)cc3)c12	nt	i	i	nt	nt	nt
COc1ccc(C(=O)NNC(=O)C(=O)Nc2ccc(C)cc2)cc1	i	i	i	i	i	i
COc1ccc(C(=O)NNC(=O)C(=O)Nc2ccc(C)c(Cl)c2)cc1	i	5.8µM	?	i	i	i
CC(C)(C)n1ncc2c(=O)n(Cc3ccccc3C(F)(F)F)cnc21	nt	nt	nt	i	nt	nt
CCOC(=O)c1sc(NC(=O)c2ccncc2)c(C#N)c1C	i	23µM	?	i	i	i
Cn1ccnc1C1CCCCN1C(=O)CN1Cc2ccccc2OC(c2ccccc2F)C1 (configuration not stated)	nt	nt	nt	i	nt	nt
COC(=O)C1=C(C)NC(=O)NC1c1cn(-c2ccccc2)nc1-c1cccs1 (configuration not stated)	i	i	i	i	i	i
CC1=C(C(=O)OC(C)C)C(c2cn(-c3ccccc3)nc2-c2cccs2)NC(=O)N1 (configuration not stated)	i	18µM	?	i	i	i
C(#Cc1ccccc1)C[N+]1(CC#Cc2ccccc2)CCCCC1	i	12µM	i	i	i	i
CCN(Cc1ccncc1)Cc1ccc2c(c1)CN(C(=O)c1ccc(OC)cc1)CCO2	nt	nt	nt	i	nt	nt
CC(CCc1ccccc1)NC(=O)c1ccc(C(=O)NC(C)CCc2ccccc2)cc1 (configuration not stated)	i	12µM	?	i	i	i
CC(CCc1ccccc1)NC(=O)c1ccccc1 (configuration not stated)	i	nt	i	i	i	i
SMILES	TSG101-PTAP inh	Nrf2 block	A549 tox	Glioma ERSR ind	Nrf2 activator	miR-21 FLuc
CC1CN(c2nc3c(c(=O)n(Cc4ccc(Cl)c(Cl)c4)c(=O)n3C)n2C)CC(C)O1 (configuration not stated)	i	23µM	?	i	i	i
Cn1c(N2CCOCC2)nc2c1c(=O)n(Cc1ccc(Cl)cc1)c(=O)n2C	i	?	i	i	i	nt
COc1ccc(CCNC(=O)c2cc3c(s2)-c2ccccc2OC3)cc1OC	nt	23µM	i	i	i	i
Cc1cccc2c1-c1sc(C(=O)NCCc3ccc(Cl)cc3)cc1CO2	nt	23µM	i	i	i	i
Cc1cccc(CCNC(=O)c2cc3c(s2)-c2c(C)cccc2OC3)c1	nt	?	i	i	i	i
Clc1ccc(CN(CCCNc2ncnc(NCCCc3cnc[nH]3)n2)c2ccc(Br)cn2)cc1Cl	nt	?	i	nt	nt	nt
COc1ccc(OC)c(C(=O)COC(=O)c2ccc(C)o2)c1	i	i	i	i	13µM	i
Oc1cccc2ccc(Nc3ccccn3)nc12	i	?	4.1µM	i	i	?
N#C/C(=C\c1ccc(-c2cc(Cl)ccc2Cl)o1)C(=O)Nc1cccc2ncccc12	nt	nt	nt	i	nt	nt
CC(C)c1ccc(NC(=O)c2cnc3sc(N4CCCC4)nn3c2=O)cc1	nt	2.3µM	i	i	i	i
Cc1onc(-c2ccccc2)c1C(=O)N[C@@H]1C(=O)N2[C@@H](C(=O)O)C(C)(C)S[C@@H]12	nt	nt	nt	i	nt	nt
Clc1cc(Cl)c(OCC#CI)cc1Cl	nt	nt	nt	i	nt	nt
COc1ccc2occ(C(=O)c3cccs3)c2c1	i	?	i	i	10µM	i
CN(Cc1ccccc1)C(=O)c1cccc(NC(=O)Cc2cccc([N+](=O)[O-])c2)c1	i	16µM	i	i	i	nt
CN(C(=O)c1cccc(NC(=O)Cc2cccc([N+](=O)[O-])c2)c1)C1CCCC1	nt	10µM	i	i	i	nt
CN(C(=O)c1cccc(NC(=O)Cc2ccc([N+](=O)[O-])cc2)c1)C1CCCC1	i	23µM	i	i	i	nt
Cc1cc2c(s1)c1cnn(Cc3c(F)ccc(C)c3F)c(=O)c1n2C	nt	i	i	nt	nt	nt
Cc1cccc(C(=O)N2CCOc3ccc(CN(C)Cc4cc(C5CC5)n[nH]4)cc3C2)n1	nt	nt	nt	i	nt	nt
Cc1ccc(SC(C)C(=O)Nc2ccncc2)cc1 (configuration not stated)	i	13µM	i	i	i	i
COc1ccc(-c2ccc3ncnc(N(C)Cc4csc(C)n4)c3c2)cc1OC	nt	3.7µM	i	nt	nt	nt
O=C(NCCCCc1ccccc1)c1nn(-c2ccccc2)nc1CO	nt	23µM	i	i	i	i
CCOc1ccc(-c2csc(/C(C#N)=C\c3ccc(O)c([N+](=O)[O-])c3)n2)cc1	i	?	16µM	i	i	i
CCc1ccc(/C=C(/C#N)c2nc(-c3ccc(C)cc3)cs2)cc1	nt	i	i	i	i	i
CCC1CN(Cc2cn[nH]c2-c2ccccc2)Cc2cc(OC)ccc2O1 (configuration not stated)	nt	nt	nt	i	nt	nt
CCCc1c(C(=O)N/N=C(\C)c2ccccc2O)nnn1-c1nonc1N	nt	nt	nt	i	i	nt
CCOc1ccc(-c2c(C(=O)N/N=C/c3cccs3)nnn2-c2nonc2N)cc1	i	12µM	i	i	i	i
CCOc1ccc(-c2c(C(=O)N/N=C/c3ccc(C)s3)nnn2-c2nonc2N)cc1	i	23µM	i	i	i	i
CCOc1cccc(-c2c(C(=O)N/N=C/c3ccc(C)s3)nnn2-c2nonc2N)c1	i	i	i	i	i	i
CCOc1cccc(-c2c(C(=O)N/N=C/c3sccc3C)nnn2-c2nonc2N)c1	i	16µM	i	i	i	i

Screening results deposited in PubChem BioAssay by National Center for Advancing Translational Sciences (NCATS).
